This is an account of results in US20140377365A1, “SUSTAINED-RELEASE FORMULATION OF ROTIGOTINE” (MAP Pharmaceuticals, Inc., priority 2013, published 2014).

A short description of the data set: In situ rotigotine salt screening (precipitate formation in ethanol/HFA 227 solution formulation). It counts as physicochemical. Particulars: 1 mg/mL rotigotine free base plus acid in 10% (w/w) ethanol in HFA 227; immediately upon preparation. Here is the method:
Rotigotine, bulk drug substance, was purchased from Chemagis (Perrigo API). A stock solution of rotigotine was prepared by dissolving rotigotine particles in ethanol at 10 mg/mL. With 1.5 mL rotigotine stock solution added to formulation bottles, each formulation bottle contained 15 mg rotigotine. For preparation of acid stock solutions, it was assumed that complete reaction or ion-pairing between rotigotine and acid. Based on the molecular weight and number of anions of each acid as listed in Table 1, acids stock solutions were prepared by dissolving the required amount in ethanol.
Each formulation bottle was filed with 1.5 mL of rotigotine stock solution and 1.0 ml, of acid stock solution. The formulation bottles (PET bottles) were then sealed with continuous valves and vortexed for 30 seconds to mix the solution well. Finally, 17.6 g of 1,1,1,2,3,3,3-heptafluoropropane (HFA227 (Mexichem)) to make a final volume of 15 mL of rotigotine formulation. All the bottles were hand shaken for 10 seconds.
All in situ salt screening samples were made as 1 mg/mL of rotigtine free base in 10% (w/w) ethanol in HFA 227. Acids corresponding to the salt forms in Table 1 were added according to the molar ratio with rotigotine for complete reaction. As 1 mg/mL was the minimal required dose at the time of experiment, all formulations were tested at this level to screen out non-solution salt formulations. […]

For Succinate, the “Observation, Immediate” value is on record as “white precipitate”.
